Experimental data: US20100168176A1, “NOVEL COMPOUNDS, PHARMACEUTICAL COMPOSITIONS CONTAINING SAME, AND METHODS OF USE FOR SAME” (FASGEN LLC, priority 2006, published 2010)

Legend:
[1] = test system: MCF-7 human breast cancer cells; assay: XTT cytotoxicity assay, MCF-7 (M); conditions: (M) or no code; MCF-7, 72 hours
Method: (§1) The XTT assay is a non-radioactive alternative for the [^51Cr] release cytotoxicity assay. XTT is a tetrazolium salt that is reduced to a formazan dye only by metabolically active, viable cells. The reduction of XTT is measured spectrophotometrically as OD490-OD650.
(§2) To measure the cytotoxicity of specific compounds against cancer cells, 9×10^3 MCF-7 human breast cancer cells, obtained from the American Type Culture Collection are plated per well in 96 well plates in DMEM medium with 10% fetal bovine serum, insulin, penicillin, and streptomycin. Following overnight culture at 37° C. and 5% CO2, the compounds to be tested, dissolved in DMSO, are added to the wells in 1 μl volume at the following concentrations: 80, 40, 20, 10, 5, 2.5, 1.25, and 0.625 μg/ml in triplicate. Additional concentrations are tested if required. 1 μl of DMSO is added to triplicate wells are the vehicle control. C75 is run at 40, 20, 10, […], 10, and 5 in triplicate as positive controls.
(§3) After 72 hours of incubation, cells are incubated for 4 hours with the XTT reagent as per manufacturer's instructions (Cell Proliferation Kit II (XTT) Roche). Plates are read at OD490 and OD650 on a Molecular Devices SpectraMax Plus Spectrophotometer. Three wells containing the XTT reagent without cells serve as the plate blank. XTT data are reported as OD490-OD650. […]

[2] = test system: MCF-7 human breast cancer cells; assay: [14C]acetate incorporation into total lipids
Method: Measurement of [^14 C]acetate Incorporation into Total Lipids and Determination of IC50 of Compounds
This assay measures the incorporation of [^14C]acetate into total lipids and is a measure of fatty acid synthesis pathway activity in vitro. It is utilized to measure inhibition of fatty acid synthesis in vitro.
MCF-7 human breast cancer cells cultured as above, are plated at 5×10^4 cells per well in 24-well plates. Following overnight incubation, the compounds to be tested, solubilized in DMSO, are added at 5, 10, and 20 μg/ml in triplicate, with lower concentrations tested if necessary. DMSO is added to triplicate wells for a vehicle control. C75 is run at 5 and 10 μg/ml in triplicate as positive controls. After 4 hours of incubation, 0.25 μCi of [^14C]acetate (10 μl volume) is added to each well.
After 2 hours of additional incubation, medium is aspirated from the wells and 800 μl of chloroform:methanol (2:1) and 700 μl of 4 mM MgCl2 is added to each well. Contents of each well are transferred to 1.5 Eppendorf tubes, and spun at full-speed for 2 minutes in a high-speed Eppendorf Microcentrifuge 5415D. After removal of the aqueous (upper) layer, an additional 700 μl of chloroform:methanol (2:1) and 500 μl of 4 mM MgCl2 are added to each tube and then centrifuged for 1 minutes as above. […] Once dried, 3 ml of scintillant (APB #NBC5104) is added and vials are counted for ^14C. […]

[3] = test system: 231; assay: XTT cytotoxicity assay, 231; format: cell-based
Method: as §1, §2, §3

[4] = test system: MCF-7 human breast cancer cells; assay: Crystal violet cell growth assay, MCF-7; conditions: no cell code printed; MCF-7 per method, 72 hours
Method: Crystal Violet Cell Growth Assay
The crystal violet assay measure cell growth but not cytotoxicity. This assay employs crystal violet staining of fixed cells in 96-well plates with subsequent solubilization and measurement of OD490 on a spectrophotometer. The OD490 corresponds to cell growth per unit time measured. Cells are treated with the compounds of interest or vehicle controls and IC50 for each compound is computed.
To measure the cytotoxicity of specific compounds against cancer cells, 5×10^4 MCF-7 human breast cancer cells, obtained from the American Type Culture Collection are plated per well in 24 well plates in DMEM medium with 10% fetal bovine serum, penicillin, and streptomycin. Following overnight culture at 37° C. and 5% CO2, the compounds to be tested, dissolved in DMSO, are added to the wells in 1 μl volume at the following concentrations: 50, 40, 30, 20, and 10 μg/ml in triplicate. […]
After 72 hours of incubation, cells are stained with 0.5 ml of Crystal Violet stain (0.5% in 25% methanol) in each well. […] Following transfer of 100 μl from each well to a 96-well plate, plates are read at OD490 on a Molecular Devices SpectraMax Plus Spectrophotometer Average OD490 values are computed using SOFTmax Pro Software (Molecular Devices) and IC50 values are determined by linear regression analysis using Prism version 3.02 (Graph Pad Software, San Diego).

[5] = test system: 3T3; assay: XTT cytotoxicity assay, 3T3; format: cell-based
Method: as §1, §2, §3

[6] = test system: RKO; assay: XTT cytotoxicity assay, RKO; format: cell-based
Method: as §1, §2, §3

[7] = Weight loss screen in Balb/C mice; conditions: 60 mg/kg intraperitoneally, day 2
Method: Weight Loss Screen for Novel FAS Inhibitors
Balb/C mice (Jackson Labs) are utilized for the initial weight loss screening. Animals are housed in temperature and 12 hour day/night cycle rooms and fed mouse chow and water ad lib. Three mice are utilized for each compound tested with vehicle controls in triplicate per experiment. For the experiments, mice are housed separately for each compound tested three mice to a cage. Compounds are diluted in DMSO at 10 mg/ml and mice are injected intraperitoneally with 60 mg/kg in approximately 100 μl of DMSO or with vehicle alone. Mice are observed and weighed daily; average weights and standard errors are computed with Excel (Microsoft). The experiment continues until treated animals reach their pretreatment weights.

[8] = test system: SKBR; assay: XTT cytotoxicity assay, SKBR; format: cell-based
Method: as §1, §2, §3

[9] = test system: FAO; assay: FAO SC 150 / FAO Max
[10] = test system: OV; assay: XTT cytotoxicity assay, OV
[11] = test system: MRC; assay: XTT cytotoxicity assay, MRC; format: cell-based
Method: as §1, §2, §3

[12] = test system: H; assay: XTT cytotoxicity assay, H
Method: as §1, §2, §3

CCCCCCCCC1(C)SC(=O)C=C1OCC(=O)NNc1ccc(Cl)cc1 (centres unmarked)
XTT (IC50) [1]: 6.0 ± 0.8 mg/L
14C (IC50) [2]: 12.7 ± 3.7 mg/L
XTT (IC50) [3]: 9.4 ug/ml (231)
Cr. Violet (IC50) [4]: <5 mg/L
XTT (IC50) [5]: 14.9 ug/ml (3T3)
XTT (IC50) [6]: 4.5 mg/L (RKO)
Weight Loss [7]: 60 mg/kg: 1.4% (day 2)
XTT (IC50) [8]: 7.3 mg/L
FAO Max: concentration at which the maximum was seen [9]: @ 0.195 ug/ml
FAO SC 150 [9]: Neg
FAO Max ([9]; at the concentration given under E18): 107%
XTT (IC50) [10]: 8.8 mg/L (OV)
XTT (IC50) [11]: 4.3 mg/L (MRC)
XTT (IC50) [12]: 4.7 mg/L (H)
